# Measurements from article PMC10201506 (Signal Transduction and Targeted Therapy, 2023).
# Assays:
# caspase-3 = target: T1, caspase-3 (Homo sapiens, UniProt P42574); test: Caspase-3 activity assay; type: biochemical; conditions: positive control; read-out: IC50 Caspase3
# T1 sequence (P42574 29-277): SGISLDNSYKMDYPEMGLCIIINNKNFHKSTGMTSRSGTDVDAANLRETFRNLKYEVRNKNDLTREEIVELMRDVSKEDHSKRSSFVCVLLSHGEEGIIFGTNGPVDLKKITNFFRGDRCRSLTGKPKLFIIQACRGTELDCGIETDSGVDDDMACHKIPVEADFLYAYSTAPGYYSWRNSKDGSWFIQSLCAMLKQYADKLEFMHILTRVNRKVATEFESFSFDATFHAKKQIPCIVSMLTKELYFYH
# Experimental: The rate of hydrolysis product, pNA, was monitored continuously by change of absorbance at 405 nm for 5 min, and the initial rate of hydrolysis was determined using the early linear region of the enzymatic reaction curve.
# Thrombin = Thrombin (Homo sapiens, UniProt P00734); test: Thrombin enzymatic assay; type: biochemical; conditions: positive control
# Experimental: Thrombin enzymatic assay was carried out as follows: Thrombin buffer was 50 mM Tris-HCl pH 8.0,150 mM NaCl 2.5 mM CaCl2, the activity of Thrombin was monitored using the substrate Benzoyl-FVR-AMC (Calbiochem, Darmstadt, Germany) with a final concertration of 20μM.
Structure (SMILES),IC50 (caspase-3),IC50 (Thrombin)
CC(=O)N[C@@H](CC(=O)O)C(=O)N[C@@H](CCC(=O)O)C(=O)N[C@H](C(=O)N[C@H](C=O)CC(=O)O)C(C)C [Ac-DEVD-CHO],1.7 ± 0.3 nM,
CC1CNc2c(cccc2S(=O)(=O)N[C@@H](CCCNC(=N)N)C(=O)N2CC[C@@H](C)C[C@@H]2C(=O)O)C1 (some centres unmarked) [Argatroban],,6 ± 1.3 nM
